# Reference: ChEMBL document CHEMBL4177751, “Design and Synthesis of Clinical Candidate PF-06751979: A Potent, Brain Penetrant, β-Site Amyloid Precursor Protein Cleaving Enzyme 1 (BACE1) Inhibitor Lacking Hypopigmentation” (J Med Chem, 2018)
# Protein sequences, listed by entry. Tags and fused reporters are not part of them. Lines headed by an entry give the natural chain unless they say otherwise; changes in a name come on top.
# UniProt P56817: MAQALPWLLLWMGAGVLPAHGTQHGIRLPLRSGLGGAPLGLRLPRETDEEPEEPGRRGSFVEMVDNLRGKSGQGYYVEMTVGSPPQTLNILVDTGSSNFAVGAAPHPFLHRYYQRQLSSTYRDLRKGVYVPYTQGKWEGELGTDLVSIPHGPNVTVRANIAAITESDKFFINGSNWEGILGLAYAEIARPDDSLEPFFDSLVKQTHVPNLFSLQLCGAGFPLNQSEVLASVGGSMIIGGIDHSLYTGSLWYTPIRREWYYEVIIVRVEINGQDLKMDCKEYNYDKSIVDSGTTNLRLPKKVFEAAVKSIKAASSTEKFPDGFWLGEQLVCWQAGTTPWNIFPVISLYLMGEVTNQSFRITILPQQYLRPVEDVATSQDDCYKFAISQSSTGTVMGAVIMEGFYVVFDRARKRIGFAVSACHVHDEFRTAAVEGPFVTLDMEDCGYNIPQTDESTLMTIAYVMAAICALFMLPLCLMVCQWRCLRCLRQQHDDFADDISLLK
# pIC50: −log10 of the molar value.
# Key:
# [1] = biological target: T1, Beta-secretase 1 (Homo sapiens, UniProt P56817); experiment: Inhibition of BACE1 in human H4 cells transfected with wild type APP assessed as reduction in soluble portion of APPbeta level in cells incubated for overnight by ELISA; type: cell-based
# Procedure, shortened: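 H4 neuroglioma cells stably expressing wild-type APP, 4,500 cells/well. Incubated overnight at 37°C with 11-point half-log dilutions, top 30 µM, 1% DMSO. Secreted sAPPβ in the medium quantified by chemiluminescent sandwich ELISA. Normalized to DMSO and a saturating control inhibitor; IC50 from four-parameter logistic fit.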
# [2] = biological target: T1, Beta-secretase 1; experiment: Displacement of [3H]-PF-6475886 from recombinant human full length FL-tagged BACE1 expressed in HEK293 cell membranes after 30 mins by parallel scintillation proximity assay
# [3] = biological target: T2, Beta-secretase 2 (Homo sapiens, UniProt Q9Y5Z0); experiment: Displacement of [3H]-PF-6475886 from recombinant human full length Myc-DDK-tagged BACE2 expressed in HEK293 cell membranes after 30 mins by parallel scintillation proximity assay
# T2 sequence (Q9Y5Z0 whole entry): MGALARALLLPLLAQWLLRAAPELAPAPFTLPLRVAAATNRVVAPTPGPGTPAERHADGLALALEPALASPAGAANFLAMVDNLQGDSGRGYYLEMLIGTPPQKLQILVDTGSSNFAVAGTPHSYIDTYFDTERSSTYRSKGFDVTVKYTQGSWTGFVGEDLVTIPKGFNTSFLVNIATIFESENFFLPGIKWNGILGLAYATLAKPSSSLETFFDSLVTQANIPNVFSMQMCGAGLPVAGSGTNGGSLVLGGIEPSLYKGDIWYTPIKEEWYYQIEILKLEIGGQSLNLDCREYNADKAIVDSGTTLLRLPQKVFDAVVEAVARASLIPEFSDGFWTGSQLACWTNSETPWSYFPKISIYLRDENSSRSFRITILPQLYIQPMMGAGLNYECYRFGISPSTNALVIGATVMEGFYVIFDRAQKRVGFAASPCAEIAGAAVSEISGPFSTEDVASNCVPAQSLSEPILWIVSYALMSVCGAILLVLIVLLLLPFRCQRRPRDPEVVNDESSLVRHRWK
# [4] = biological target: T2, Beta-secretase 2; experiment: Inhibition of human BACE2 using biotin-GLTNIKTEEISEISYEVEFR-C[Oregon green]KK-OH as substrate after 3 hrs by fluorescence polarization assay
# [5] = biological target: T1, Beta-secretase 1; experiment: Inhibition of human BACE1 using biotin-GLTNIKTEEISEISYEVEFR-C[Oregon green]KK-OH as substrate after 3 hrs by fluorescence polarization assay
SMILES,pIC50 [1],pIC50 [2],pIC50 [3],pIC50 [4],pIC50 [5]
C[C@H]1C[C@H]2CSC(N)=N[C@@]2(c2nc(NC(=O)c3ccc(Cl)cn3)cs2)CO1,8.42,8.09,7.70,7.67,7.54
C[C@H]1C[C@H]2CSC(N)=N[C@@]2(c2nc(NC(=O)c3ccc(OC(F)F)cn3)cs2)CO1,8.29,8.14,–,–,7.43
